Results reported in patent publication US8426420B2, “Heterocyclic pyrazole-carboxamidesas P2Y12 antagonists” (Sanofi, priority 2007, dated 2013).

Key:
[1] = tested on: human platelet rich plasma; test: Inhibition of human platelet aggregation, "Born"-method using single cuvettes; format: cell-based; settings: 0.1 h, ADP-induced aggregation, 6 minutes
Experimental: (§1) Inhibition of Human Platelet Aggregation
(§2) Alternatively to a binding assay which measures a compound's ability to bind to the P2Y12 receptor, the effect on cellular function was also determined. This ability of the compound was evaluated in two platelet aggregation assays: in 96-well plates and with the “Born”-method using single cuvettes.
(§3) Whole blood was collected from healthy volunteers using 20 ml syringes containing 2 ml of buffered Citrate. The anticoagulated whole blood was transferred into 15 ml polypropylene conical tubes (10 ml per tube). The tubes were centrifuged for 15 minutes at 340×g at RT without using the centrifuge brake. This procedure leads to a pellet of cellular components and a supernatant of platelet rich plasma (PRP). The PRP layer was collected from each tube and pooled for each donor. […] The platelet concentration was determined using a Coulter Counter. […]
In the assay cuvette 4 μl of test compound at 100× final concentration in DMSO is mixed with 392 μl fresh PRP and incubated for 2 minutes at 37° C. with 1.200 rpm stirring. […] After that aggregation is measured over 6 minutes at 37° C. with 1.200 rpm stirring. Results of the assay are expressed as % inhibition, and are calculated using maximum aggregation (Tmax) or area under curve (AUC) of the absorbance over 6 minutes. […]

[2] = tested on: human platelet rich plasma; test: Inhibition of human platelet aggregation, 96-well assay; format: cell-based; settings: 20 min
Experimental: as §1, §2
as §3, with “ACD-A Aqua-Citrat-Dextrose-A, Fresenius).” for “buffered Citrate.”, “150×g” for “340×g”
The human platelet aggregation assay is performed in 96-well plates using a microtiter plate reader (SpectraMax Plus 384 with SoftMax Pro software from Molecular Devices). […] The plates are then transferred to the microplate reader and aggregation is measured over 20 minutes. […]
Absorbance at 650 nm, run time 20 minutes with readings in 1-minute intervals and 50 seconds shaking between readings all performed at 37° C. […]

IC50 [1] [nM] | IC50 [2] [nM] | Structure (SMILES)
21 | – | CCOC(=O)N1CCN(C(=O)[C@H](CCC(=O)O)NC(=O)c2cc(OCC(=O)N3CCC[C@H]3C(=O)NC3CCC3)n(-c3ccccc3)n2)[C@H](C)C1 [Example 150, (R)-4-[(S)-4-Carboxy-2-({5-[2-((S)-2-cyclobutylcarbamoyl-pyrrolidin-1-yl)-2-oxo-ethoxy]-1-phenyl-1H-pyrazole-3-carbonyl}-amino)-butyryl]-3-methyl-piperazine-1-carboxylic acid ethyl ester]
– | 290 | CCOC(=O)N1CCN(C(=O)[C@H](CCC(=O)O)NC(=O)c2cc(OCC(=O)N3CCC[C@H]3c3ccccc3)n(-c3ccccc3)n2)CC1 [Example 170, 4-[(S)-4-Carboxy-2-({5-[2-oxo-2-((S)-2-phenyl-pyrrolidin-1-yl)-ethoxy]-1-phenyl-1H-pyrazole-3-carbonyl}-amino)-butyryl]-piperazine-1-carboxylic acid ethyl ester]
– | 130 | CCOC(=O)N1CCN(C(=O)[C@H](CCNS(C)(=O)=O)NC(=O)c2cc(OCC(=O)N3CCC[C@H]3C(=O)NC3CCC3)n(-c3ccccc3)n2)CC1 [Example 94, 4-[(S)-2-({5-[2-((S)-2-Cyclobutylcarbamoyl-pyrrolidin-1-yl)-2-oxo-ethoxy]-1-phenyl-1H-pyrazole-3-carbonyl}-amino)-4-methanesulfonylamino-butyryl]-piperazine-1-carboxylic acid ethyl ester]
42 | – | O=C(O)CC[C@H](NC(=O)c1cc(OCC(=O)N2CCC[C@H]2C(=O)NC2CCC2)n(-c2ccccc2)n1)C(=O)N1CCN(C(=O)OC2CCC2)CC1 [Example 163, 4-[(S)-4-Carboxy-2-({5-[2-((S)-2-cyclobutylcarbamoyl-pyrrolidin-1-yl)-2-oxo-ethoxy]-1-phenyl-1H-pyrazole-3-carbonyl}-amino)-butyryl]-piperazine-1-carboxylic acid cyclobutyl ester]
